Each structure is given as a SMILES string. The list shows a part of the results, in another mix than the full data. Activity calls are given as the source filed them.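 How the source made its calls: active means inhibition above its plate's cutoff, the mean of tested wells on that plate plus 3 SD (cut at about 29% in these data); inactive means the rest.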

Sequences of proteins named here, by UniProt entry; tags and fusion partners are left off.
UniProt P32245, whole entry: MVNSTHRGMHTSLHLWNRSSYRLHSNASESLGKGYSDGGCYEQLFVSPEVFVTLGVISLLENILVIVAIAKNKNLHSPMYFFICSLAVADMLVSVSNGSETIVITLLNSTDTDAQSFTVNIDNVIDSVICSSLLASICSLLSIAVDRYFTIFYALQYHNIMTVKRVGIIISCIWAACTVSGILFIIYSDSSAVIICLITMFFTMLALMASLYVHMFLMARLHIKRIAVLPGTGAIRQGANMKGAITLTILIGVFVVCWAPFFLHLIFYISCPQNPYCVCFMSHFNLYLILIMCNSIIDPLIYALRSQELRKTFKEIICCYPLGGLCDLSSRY

Inhibition data for two compounds are collected here from PubChem BioAssay AID540295 (The Scripps Research Institute Molecular Screening Center, 2011).

This assay concerns the target Melanocortin receptor 4 (Homo sapiens) (UniProt P32245). Put plainly: blockers of MC4R Gs-cAMP response – cell-based, TR-FRET, antagonist arm of biased-ligand search, primary screen (AID 540295).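 Further: 0% = Melanotan II alone and 100% = Melanotan II plus saturating MCL0020.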 To be noted: MC4R-expressing cells, MTII-stimulated cAMP, LANCE TR-FRET; at 6.5 µM; active compounds read high.
`Cc1ccc(C(=O)OC2CN3CCC2CC3)cc1` (configuration not stated): the inhibition is inactive: 3.27%. Next, `COc1ccc(OP(C)(=O)Nc2ccccn2)cc1` (configuration not stated): inactive: 11.7%.

As a reminder, the inhibition is the percentage by which the read-out fell short of the control.
